This note sets out measurements from patent US11767344B2, “Pharmaceutically acceptable salts of polypeptides and methods of inhibiting the interaction between psd-95 and n-methyl-d-aspartic acid receptor (nmdar)” (BIOCELLS (BEIJING) BIOTECH CO., LTD., priority 2017, dated 2023).

By UniProt entry, the sequences of proteins in these tests, tags left out. Residues count along the entry.
UniProt P78352, 61-249 limits assumed: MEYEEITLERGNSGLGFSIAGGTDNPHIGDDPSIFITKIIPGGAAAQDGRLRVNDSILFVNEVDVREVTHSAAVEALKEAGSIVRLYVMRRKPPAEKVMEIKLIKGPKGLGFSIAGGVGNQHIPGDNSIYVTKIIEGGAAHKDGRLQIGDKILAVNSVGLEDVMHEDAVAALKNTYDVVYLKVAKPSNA

This assay deals with PDZ1/2 domain (Homo sapiens, UniProt P78352). The note with it: Biacore 3000, CM5 chip, 1:1 binding model. (In general: Surface plasmon resonance follows binding to a sensor surface in real time, without labels.)

The structures appear in SMILES notation.

Broadly, the Kd is the concentration at which binding is half-saturated. Read a high Kd as weaker binding. In turn, `CC[C@H](C)[C@H](NC(=O)[C@H](CCC(=O)O)NC(=O)[C@@H](NC(=O)[C@H](CC(=O)O)NC(=O)[C@H](CC(C)C)NC(=O)[C@H](CC(C)C)NC(=O)[C@H](CCCCN)NC(=O)[C@H](CCC(=O)O)NC(=O)[C@H](Cc1ccc(O)cc1)NC(=O)[C@H](CCCNC(=N)N)NC(=O)[C@H](CCCNC(=N)N)NC(=O)[C@H](CCCNC(=N)N)NC(=O)[C@H](CCC(N)=O)NC(=O)[C@H](CCCNC(=N)N)NC(=O)[C@H](CCCNC(=N)N)NC(=O)[C@H](CCCCN)NC(=O)[C@H](CCCCN)NC(=O)[C@H](CCCNC(=N)N)NC(=O)CNC(=O)[C@@H](N)Cc1ccc(O)cc1)[C@@H](C)O)C(=O)O` [P5] came in with a Kd of 29.9 nM.
